Measurements taken from patent US20260191962A1, “NOVEL CHLORIN E6 ANALOGUES” (RMW CHO Group Limited, priority 2022, published 2026).

Test: Stability of chlorin e6 analogue salts in aqueous solution (HPLC purity over time)
Assay type: physicochemical
Details: distilled deionised water, 30° C., air and ambient light not excluded
Method: Reaction solutions were prepared by dissolving 2-3 mg of the respective chlorin e6 analogue salt in 5 mL of distilled deionised water in a 50 mL test tube fitted with a lid. The solutions were stirred in the test tubes at 30° C. Air (oxygen) and ambient light so were not excluded. Sample HPLC analyses were performed at 0.5, 4 or 66 hours (unless indicated otherwise). The aim was to look for degradation over time.
• Mobile Phase: A=0.05% w/v phosphoric acid in distilled water; B=acetonitrile • Injection volume: 5 μL • HPLC run length: 35 minutes • Detection wavelength: 406 nm • Column temperature: 40° C.

Purity by HPLC after 0.5 hours (%)	Purity by HPLC after 4 hours (%)	Purity by HPLC (%) after 4 days (after 4 days)	Purity by HPLC after 4 hours (%) (Disodium Salt)	SMILES
96.95%	97.15%			C=Cc1c(C)c2cc3nc(c(CC(=O)OCC)c4[nH]c(cc5nc(cc1[nH]2)C(C)=C5CC)c(C)c4C(=O)O)[C@@H](CCC(=O)O)[C@@H]3C [Compound 16, Chlorin e6 15-ethyl Ester bis(N-methyl-D-glucamine) Salt]
93.03%	95.22%	94.62 (after %		C=Cc1c(C)c2cc3nc(c(CC(=O)OCC)c4[nH]c(cc5nc(cc1[nH]2)C(C)=C5CC)c(C)c4C(=O)O)[C@@H](CCC(=O)O)[C@@H]3C [Compound 18, Chlorin e6 15-ethyl Ester mono(N-methyl-D-glucamine) Salt]
			77.98%	C=Cc1c(C)c2cc3nc(c(CC(=O)OCC)c4[nH]c(cc5nc(cc1[nH]2)C(C)=C5CC)c(C)c4C(=O)O)[C@@H](CCC(=O)O)[C@@H]3C [Compound 17, Chlorin e6 15-ethyl Ester Disodium Salt]

Where a name gives a salt, the structure may show the parent alone.
